The subject of data set [1] is DNA. Kind of data set: DNA interstrand cross-link formation on UV (350 nm) irradiation (Example 16).
The conditions of data set [2]: mice; cited from earlier work.

A value given as a limit tells only on which side of the number the result lay.

With “5-(N,N, N-trimethylmethanaminium iodide)-1-(2-(5-(N,N, N-trimethyl methanaminium iodide)-4-nitro-1H-imidazol-1-yl)ethyl)-4-nitro-1H-imidazole”, the direct strand breaks entry in data set [1] is listed as “induced direct strand breaks”. Take Mito-CP: the “time to clearance from plasma after injection” value in data set [2] was not above 6 h.

Source of the values: patent US8962670B2, “Anti-cancer agents” (UWM Research Foundation, Inc., priority 2011, dated 2015).
